Earlier results as cited in patent US8791093B2, “Pharmaceutical delivery systems for treatment of substance abuse and other addictions” (priority 2009, dated 2014).

Test system: CB1 receptor
Details: animals

## Cc1c(C(=O)NN2CCCCC2)nn(-c2ccc(Cl)cc2Cl)c1-c1ccc(Cl)cc1 [Rimonabant]
  dopamine-releasing, discriminative and rewarding effects of Delta(9)-THC: blocks
